Experimental data reported in patent US5228957A, “Separation of methyl T-butyl ether from close boiling C5 hydrocarbons by extractive distillation” (priority 1993, dated 1993).
Read-outs that look alike come from different tables or passages of the source.

Tests used:
[1] = Extractive distillation agent separating methyl t-butyl ether from cyclopentane (vapor-liquid equilibrium still); format: physicochemical; conditions: cyclopentane to methyl t-butyl ether, with agent
Source text: The data in Tables 2-6 was obtained in a vapor-liquid equilibrium still.

[2] = Extractive distillation agent separating methyl t-butyl ether from n-pentane-cyclopentane mixtures (vapor-liquid equilibrium still); format: physicochemical

SMILES | Relative Volatility [1] | Relative Volatility Pnt/MTBE [2] | Relative Volatility CyP/MTBE ([2]; cyclopentane to methyl t-butyl ether, n-pentane-cyclopentane mixture, with agent) | Relative Volatility CyP/MTBE [2] | Relative Volatility Pnt/MTBE ([2]; n-pentane to methyl t-butyl ether, n-pentane-cyclopentane mixture, with agent)
N#CCCCCC#N [Adiponitrile] | 2.9 | 1.4 | 3.9 | – | –
COC(=O)c1ccccc1 [Methyl benzoate] | – | – | – | 1.6 | 1.8
